Data reported in PubChem BioAssay AID2057 (The Scripps Research Institute Molecular Screening Center, 2009).
The list shows a part of the results, in another mix than the full data. The source made the active and inactive calls.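 Rule for the calls: active = inhibition above the mean inhibition of all tested compounds plus 3 SD, set per campaign (cut at about 40% in these data); inactive = the rest.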

Protein sequences, listed by entry. Tags and fused reporters are not part of them.
UniProt Q07820, whole entry, looked up: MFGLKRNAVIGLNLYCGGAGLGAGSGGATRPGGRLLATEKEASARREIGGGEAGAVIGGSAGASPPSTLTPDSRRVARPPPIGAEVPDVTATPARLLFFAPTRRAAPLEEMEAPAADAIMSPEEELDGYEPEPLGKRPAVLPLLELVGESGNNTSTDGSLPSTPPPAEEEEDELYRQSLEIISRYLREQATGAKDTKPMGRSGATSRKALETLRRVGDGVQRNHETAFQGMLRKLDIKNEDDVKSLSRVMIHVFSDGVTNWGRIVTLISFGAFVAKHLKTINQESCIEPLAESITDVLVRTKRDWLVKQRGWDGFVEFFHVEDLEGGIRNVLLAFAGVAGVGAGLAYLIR

What follows are molecules tested against Induced myeloid leukemia cell differentiation protein Mcl-1 (Homo sapiens) (UniProt Q07820) (assay: MCL1-BIM peptide interaction disruptors – biochemical, fluorescence polarization, primary screen (AID 2057;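 note: 0% = DMSO wells and 100% = unlabeled Bim-BH3 peptide control; higher means more loss of mP so more displacement of Bim peptide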)). Conditions: GST-MCL1 / FITC-Bim-BH3 fluorescence polarization; at 10.9 µM; active compounds read high.
`CCOc1ccc(C2=NCC(CBr)S2)cc1` (centres undefined) was tested, and the inhibition was inactive: -2.87%.
With `CC(=O)Nc1ccc([As](=O)(O)O)c(O)c1` the inhibition was inactive: -5.33%.
`CC(=O)Nc1ccc(Oc2c([N+](=O)[O-])cc([N+](=O)[O-])cc2[N+](=O)[O-])cc1` was tested, and the inhibition was inactive: -0.17%.
In the case of `CC(=O)c1ccc(N2CC2c2ccncc2)cc1` (centres undefined), the inhibition is reported as inactive: 0.96%.
In the case of `Cc1ccccc1CN(C)C(=O)COC(=O)C(O)(c1ccccc1)c1ccccc1`, the inhibition is reported as inactive: -2.54%.
In the case of `C[C@@H]1C=CCP(=O)(Oc2ccccc2)O1` (some centres undefined), the inhibition is reported as inactive: 2.22%.
In the case of `C[C@H]1OP(=O)(Oc2ccccc2)C[C@@H]2O[C@@H]21` (some centres undefined), the inhibition is reported as inactive: -5.86%.
With `O=[As](O)(c1cccc(O)c1)c1cccc(O)c1` the inhibition was inactive: 3.73%.
For `Cc1cccc(OCC(=O)OC2CN3CCC2CC3)c1` (centres undefined), the inhibition was inactive: 7.82%.
With `COc1cc(C(=O)NCC2(N3CCOCC3)CCCCC2)cc(Cl)c1OC(C)C` the inhibition was inactive: 3.3%.
In the case of `O=[As](O)(O)c1cccnc1`, the inhibition is reported as inactive: 6.71%.
With `CS(=O)(=O)c1ccc(Cl)c(NC(=O)COC(=O)C(O)(c2ccccc2)c2ccccc2)c1` the inhibition was inactive: -6.78%.
For `O=C(OC1CN2CCC1CC2)c1ccc(Cl)cc1` (centres undefined), the inhibition was active: 88.7%.
`COc1cc(C2NCCC3(OCCO3)C2(C)C)cc(OC)c1OC` (centres undefined) was tested, and the inhibition was inactive: -1.57%.
`CCOP(=O)(Nc1cccc2ccccc12)OCC` was tested, and the inhibition was inactive: 0.83%.
`CCCOP(=S)(Nc1nc(N)cc(=O)[nH]1)OCCC` was tested, and the inhibition was inactive: 0.3%.
`Cc1ccc(NCCc2c([N+](=O)[O-])cc([N+](=O)[O-])cc2[N+](=O)[O-])cc1` was tested, and the inhibition was inactive: 9.99%.
`Nc1ccccc1[As](=O)(O)c1ccccc1` was tested, and the inhibition was inactive: 13.6%.
`O=C(O)COc1ccc([As](=O)(O)O)cc1[N+](=O)[O-]` was tested, and the inhibition was inactive: 7.46%.
For `CS(=O)(=O)c1cc([N+](=O)[O-])c2no[n+]([O-])c2c1`, the inhibition was active: 68.5%.
For `CCOP1(=S)c2c(C)nn(CCC#N)c2N=C(c2ccccc2F)N1C` (centres undefined), the inhibition was inactive: -0.26%.
With `O=P(Nc1nccs1)(c1ccccc1)c1nc2ccccc2s1` (centres undefined) the inhibition was inactive: -37.4%.
With `O=P(Nc1nccs1)(Oc1ccccc1)Oc1ccccc1` the inhibition was inactive: 0.95%.
In the case of `CN(C)C(=O)c1cc([N+](=O)[O-])cc2c1-c1c(cc([N+](=O)[O-])cc1[N+](=O)[O-])C2=O`, the inhibition is reported as inactive: -1.52%.
With `O=[N+]([O-])c1ccc2c(c1)nnn2O` the inhibition was inactive: 3.35%.
`CN(C(=O)Cc1ccc(Cl)c(Cl)c1)[C@H]1CC[C@@]2(CCCO2)C[C@@H]1N1CCCC1` was tested, and the inhibition was inactive: 4.92%.
For `N#CCCN(C(=O)COC(=O)C(O)(c1ccccc1)c1ccccc1)c1ccc(F)cc1`, the inhibition was inactive: 8%.
`CCOP1(=S)c2c(C)nn(CCC#N)c2N=C(c2ccc(F)cc2)N1C` (centres undefined) was tested, and the inhibition was inactive: 5.98%.
For `CN(C(=O)Cc1ccccc1)[C@@H]1CC[C@]2(CCCO2)C[C@H]1N1CCCC1`, the inhibition was inactive: 5.41%.
With `NC(=O)Nc1ccc([As](=O)(O)O)cc1` the inhibition was inactive: 12.9%.
For `O=C(/C=C/c1ccccc1)OC1CN2CCC1CC2` (centres undefined), the inhibition was inactive: -8.79%.
In the case of `CN(C)C1(CNC(=O)c2ccc(S(C)(=O)=O)cc2)CCCCC1`, the inhibition is reported as inactive: 8.52%.
In the case of `Cc1nn(-c2ccccc2)c2c1P(=O)(N1CCOCC1)N(C)C(c1ccccc1)=N2` (centres undefined), the inhibition is reported as inactive: 4.62%.
In the case of `CC1CCC(C(C)C)C(OP(=O)(Nc2ccccn2)c2ccccc2)C1` (centres undefined), the inhibition is reported as inactive: 5.03%.
`Cc1ccc(C(=O)OC2CN3CCC2CC3)cc1` (centres undefined) was tested, and the inhibition was inactive: -2.53%.
With `O=P1(Nc2ccc(Br)cn2)COc2ccccc2OC1` the inhibition was inactive: 11.7%.
With `NS(=O)(=O)c1cccc(NC(=O)COC(=O)C(O)(c2ccccc2)c2ccccc2)c1` the inhibition was inactive: -2.48%.
With `O=[As](O)(c1cccs1)c1cccs1` the inhibition was inactive: -6.12%.
`Cc1ccc(OCC(=O)OC2CN3CCC2CC3)cc1` (centres undefined) was tested, and the inhibition was inactive: 1.47%.
For `Nc1cccc([As](=O)(O)c2ccccc2)c1`, the inhibition was inactive: 10.1%.
In the case of `O=P1(Nc2ncccn2)COc2ccccc2OC1`, the inhibition is reported as inactive: 0.43%.
With `Clc1n[nH]nc1-c1nn[nH][15n]1` the inhibition was inactive: 4.52%.
For `CC(C)(C)C(=O)NC(Sc1ncccn1)C(Cl)(Cl)Cl` (centres undefined), the inhibition was inactive: 4.18%.
`CN(CCCl)Cc1cc(Cl)c(NC2=NCCN2)c(Cl)c1` was tested, and the inhibition was inactive: 5.39%.
For `CCOP(=O)(Nc1ccc(C)cn1)OCC`, the inhibition was inactive: 1.74%.
For `O=P1(Nc2ccccn2)COc2ccccc2OC1`, the inhibition was inactive: -0.8%.
For `CCC1=CC2Cc3nc4ccc(Cl)cc4c(N)c3C(C1)C2` (centres undefined), the inhibition was inactive: 7.41%.
`CCOP(=O)(NC(=NC(C)c1ccccc1)NC(C)c1ccccc1)OCC` (centres undefined) was tested, and the inhibition was inactive: -0.17%.
For `O=[As](O)(c1ccccc1Br)c1ccccc1Br`, the inhibition was inactive: -7.68%.
`CC1(CBr)Cn2c(nc3ccccc3c2=O)S1` (centres undefined) was tested, and the inhibition was inactive: -2.88%.
In the case of `CC(C)/C=N\N=C(\N)N[N+](=O)[O-]`, the inhibition is reported as inactive: -4.45%.
In the case of `CN(C(=O)Cc1ccc(Cl)c(Cl)c1)[C@@H]1CCCC[C@H]1N1CCCC1`, the inhibition is reported as inactive: 2.9%.
For `COc1ccccc1CNC(=O)COC(=O)C(O)(c1ccccc1)c1ccccc1`, the inhibition was inactive: -1.91%.
For `O=C(COc1ccccc1)OC1CN2CCC1CC2` (centres undefined), the inhibition was inactive: 1.05%.
In the case of `O=C(Nc1ccncc1[N+](=O)[O-])c1ccc([N+](=O)[O-])cc1[N+](=O)[O-]`, the inhibition is reported as inactive: 5.67%.
For `CCC(C)N(CC(C)C)C(=S)SC(NC(C)=O)C(Cl)(Cl)Cl` (centres undefined), the inhibition was inactive: 17.5%.
For `CCOC(=O)c1ccc(NC(=O)C(C)(CCl)SC)cc1` (centres undefined), the inhibition was inactive: -4.66%.
With `O=C(OC1CN2CCC1CC2)c1cccc([N+](=O)[O-])c1` (centres undefined) the inhibition was inactive: -2.84%.
In the case of `Cc1cc(SC(NC(=O)c2ccccc2)C(Cl)(Cl)Cl)nc(C(C)C)n1` (centres undefined), the inhibition is reported as inactive: 20.6%.
With `CCOC(=O)Nc1ccc([As](=O)(O)O)c(O)c1` the inhibition was inactive: 1.48%.
With `O=P(Nc1ccccn1)(c1cccc2ccccc12)c1cccc2ccccc12` the inhibition was inactive: 1.83%.
With `Cc1cc(SC(NC=O)C(Cl)(Cl)Cl)ncn1` (centres undefined) the inhibition was inactive: 10.2%.
`CCOC(=O)Nc1cccc([As](=O)(O)O)c1` was tested, and the inhibition was inactive: 2.88%.
For `Cc1ccc2nc3c(c(C)c2c1)CC(C(Cl)Cl)S3` (centres undefined), the inhibition was inactive: -4.42%.
For `Cc1ccc(OP(=O)(Nc2ccc([N+](=O)[O-])cn2)Oc2ccc(C)cc2)cc1`, the inhibition was inactive: -1.05%.
In the case of `O=[As](O)(c1ccc(O)cc1)c1ccccc1O`, the inhibition is reported as inactive: -7.61%.
With `C[As](=O)(O)c1cccc(C(=O)O)c1` the inhibition was inactive: 9.44%.
In the case of `COc1cc(C(=O)NCC2(N3CCOCC3)CCCCC2)ccc1OCC(C)C`, the inhibition is reported as inactive: -0.9%.
`CCN(CC)C(=S)SC(NC=O)C(Cl)(Cl)Cl` (centres undefined) was tested, and the inhibition was inactive: 1.36%.
With `CC(C)NC(=O)NP(=O)(Oc1ccccc1)Oc1ccccc1` the inhibition was inactive: 3.34%.
With `O=[N+]([O-])c1cc([N+](=O)[O-])c(-c2ccn[nH]2)s1` the inhibition was inactive: 2.45%.
For `CC(C)c1ccc(OP(=O)(Nc2ccccn2)Oc2ccccc2F)cc1` (centres undefined), the inhibition was inactive: -2.9%.
In the case of `ClCCSc1nnc(-c2cccnc2)o1`, the inhibition is reported as inactive: 7.6%.
`COc1ccc2nc(NP(=O)(c3ccccc3)c3ccccc3)sc2c1` was tested, and the inhibition was inactive: 5.34%.
In the case of `COc1cc(I)ccc1[As](=O)(O)O`, the inhibition is reported as inactive: 8.15%.
In the case of `O=C(OC1CN2CCC1CC2)C12CC3CC(CC(C3)C1)C2` (centres undefined), the inhibition is reported as inactive: 1.36%.
For `Cc1cc(=O)[nH]c(N[N+](=O)[O-])n1`, the inhibition was inactive: -3.35%.
For `Cc1c2c(nc3ccccc13)SC(C(Cl)Cl)C2` (centres undefined), the inhibition was inactive: 7.76%.
In the case of `COc1ccc(N/C(=N/P(=O)(N2CCOCC2)N2CCOCC2)N2CCOCC2)cc1`, the inhibition is reported as inactive: -4.34%.
